Experimental data taken from patent US20230066008A1, “ANTIPARASITIC COMPOSITION” (DERMALIQ THERAPEUTICS, INC., priority 2020, published 2023).

Settings: 50 mg/ml (5% w/v) in F4H8, shaken at 280 rpm, RT for 16 h
Procedure: 500 mg crotamiton (SynTech, Ph.Eur. grade) is weighed in a 5-ml volumetric flask; the flask is then filled to 5 ml with F6H8 (Novaliq, purity >99%), closed and shaken for 5 min at 280 rpm, RT.

In the case of `CC1(C)C(C=C(Cl)Cl)C1C(=O)OCc1cccc(Oc2ccccc2)c1` (stereo not shown) [Permethrin, permethrin], the “Appearance of resulting solution” value was “clear”.
